Chains of the proteins cited; added tags and fusions are not shown. Residues count along the entry.
UniProt P28335, 33-458: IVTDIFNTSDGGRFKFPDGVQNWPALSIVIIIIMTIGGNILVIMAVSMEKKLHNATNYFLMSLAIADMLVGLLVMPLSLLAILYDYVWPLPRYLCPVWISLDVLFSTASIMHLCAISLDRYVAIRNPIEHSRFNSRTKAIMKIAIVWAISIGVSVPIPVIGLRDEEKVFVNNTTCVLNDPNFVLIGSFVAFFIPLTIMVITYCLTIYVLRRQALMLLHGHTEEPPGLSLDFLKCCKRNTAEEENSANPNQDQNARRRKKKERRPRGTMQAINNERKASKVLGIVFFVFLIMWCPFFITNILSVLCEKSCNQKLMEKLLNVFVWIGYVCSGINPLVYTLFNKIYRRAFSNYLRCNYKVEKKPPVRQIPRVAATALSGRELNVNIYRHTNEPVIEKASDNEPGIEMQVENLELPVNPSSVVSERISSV
UniProt P28223, whole entry: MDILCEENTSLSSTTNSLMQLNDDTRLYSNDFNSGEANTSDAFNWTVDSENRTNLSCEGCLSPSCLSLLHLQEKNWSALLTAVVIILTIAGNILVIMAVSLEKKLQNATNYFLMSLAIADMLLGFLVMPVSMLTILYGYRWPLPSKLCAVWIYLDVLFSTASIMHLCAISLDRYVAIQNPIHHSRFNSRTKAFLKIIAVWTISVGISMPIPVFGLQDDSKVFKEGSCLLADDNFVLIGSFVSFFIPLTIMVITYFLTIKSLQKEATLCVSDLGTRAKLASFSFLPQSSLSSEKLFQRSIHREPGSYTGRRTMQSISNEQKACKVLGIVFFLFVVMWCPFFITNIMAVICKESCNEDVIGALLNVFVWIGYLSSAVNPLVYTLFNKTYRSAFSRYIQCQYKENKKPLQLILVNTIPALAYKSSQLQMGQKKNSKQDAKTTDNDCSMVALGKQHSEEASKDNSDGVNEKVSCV

According to PMC11089506 (Journal of Medicinal Chemistry, 2024):

Tests used:
human 5-HT2CR = human 5-HT2CR (Homo sapiens, UniProt P28335); experiment: Ca2+/Fluo-4 assay, agonist mode, stable 5-HT2CR-HEK293 cells; conditions: for 5-HT2CR Rmax (%): % of the 5-HT Rmax; for 5-HT2CR Rmax ± S.E.M.: Table S2, % of the 5-HT Rmax on the same 96-well plate
human 5-HT2AR = human 5-HT2AR (Homo sapiens, UniProt P28223); experiment: Ca2+/Fluo-4 assay, agonist mode, stable 5-HT2AR-HEK293 cells; conditions: for 5-HT2AR Rmax (%): Table 1, % of the 5-HT Rmax; for 5-HT2AR Rmax ± S.E.M.: Table S2, % of the 5-HT Rmax on the same 96-well plate; for fold drop in agonist potency (fold higher EC50) at 5-HT2AR: relative to (S)-11; for fold higher agonist potency at 5-HT2AR than at 5-HT2CR (selectivity): 5-HT2AR vs 5-HT2CR

| Structure (SMILES) | 5-HT2CR Rmax ± S.E.M. (human 5-HT2CR) | 5-HT2CR Rmax (%) (human 5-HT2CR; Table 1) | 5-HT2AR Rmax (%) (human 5-HT2AR) | 5-HT2AR Rmax ± S.E.M. (human 5-HT2AR) | other results |
| --- | --- | --- | --- | --- | --- |
| COc1cc(C(F)(F)F)c(OC)cc1[C@@H]1CCCN(C)C1 [(S)-19, (S)-3-(2,5-Dimethoxy-4-(trifluoromethyl)phenyl)-1-methylpiperidine] | 14 ± 2% |  |  |  | 5-HT2CR Rmax (%) (human 5-HT2CR; Table 2): 14% |
| COc1cc(C2CCCNC2)c(OC)cc1Br (stereo not shown) [Compound 6dis, 3-(4-Bromo-2,5-dimethoxyphenyl)piperidine] | 34 ± 4% | 34% | 67% | 67 ± 6% |  |
| COc1cc(C2CCCNC2)c(OC)cc1Br (stereo not shown) [Compound 6eu, 3-(4-Bromo-2,5-dimethoxyphenyl)piperidine] |  |  | 37% | 37 ± 4% | Rmax at 5-HT2AR (human 5-HT2AR): 37% |
| COc1cc(C2CCCNC2)c(OC)cc1Cl (stereo not shown) [Compound 8dis, 3-(4-Chloro-2,5-dimethoxyphenyl)piperidine] | 26 ± 2% | 26% | 61% | 61 ± 2% |  |
| COc1cc(C2CCCNC2)c(OC)cc1Cl (stereo not shown) [Compound 8eu, 3-(4-Chloro-2,5-dimethoxyphenyl)piperidine] |  |  | 32% | 32 ± 6% |  |
| COc1cc(C2CCCNC2)c(OC)cc1I (stereo not shown) [Compound 9dis, 3-(4-Iodo-2,5-dimethoxyphenyl)piperidine] |  |  | 58% | 58 ± 4% |  |
| COc1cc(C2CCCNC2)c(OC)cc1I (stereo not shown) [Compound 9eu, 3-(4-Iodo-2,5-dimethoxyphenyl)piperidine] |  |  | 53% | 53 ± 3% |  |
| COc1cc(C2CCCNC2)c(OC)cc1C#N (stereo not shown) [Compound 10dis, 2,5-Dimethoxy-4-(piperidin-3-yl)benzonitrile] | 14 ± 1% | 14% | 41% | 41 ± 6% |  |
| COc1cc(C2CCCNC2)c(OC)cc1C#N (stereo not shown) [Compound 10eu, 2,5-Dimethoxy-4-(piperidin-3-yl)benzonitrile] |  |  | 25% | 25 ± 4% |  |
| COc1cc(C2CCCNC2)c(OC)cc1C.Cl (stereo not shown) [Compound 12dis, 3-(2,5-Dimethoxy-4-methylphenyl)piperidine Hydrochloride] | 53 ± 6% | 53% | 89% | 89 ± 4% |  |
| COc1cc(C2CCCNC2)c(OC)cc1C.Cl (stereo not shown) [Compound 12eu, 3-(2,5-Dimethoxy-4-methylphenyl)piperidine Hydrochloride] |  |  | 75% | 75 ± 3% |  |
| CCc1cc(OC)c(C2CCCNC2)cc1OC.Cl (stereo not shown) [Compound 13dis, 3-(4-Ethyl-2,5-dimethoxyphenyl)piperidine Hydrochloride] | 44 ± 5% | 44% | 93% | 93 ± 5% |  |
| CCc1cc(OC)c(C2CCCNC2)cc1OC.Cl (stereo not shown) [Compound 13eu, 3-(4-Ethyl-2,5-dimethoxyphenyl)piperidine Hydrochloride] |  |  | 75% | 75 ± 4% |  |
| CCCCc1cc(OC)c(C2CCCNC2)cc1OC.Cl (stereo not shown) [Compound 14dis, 3-(4-Butyl-2,5-dimethoxyphenyl)piperidine Hydrochloride] | 68 ± 6% | 68% | 93% | 93 ± 5% |  |
| CCCCc1cc(OC)c(C2CCCNC2)cc1OC.Cl (stereo not shown) [Compound 14eu, 3-(4-Butyl-2,5-dimethoxyphenyl)piperidine Hydrochloride] |  |  | 82% | 82 ± 2% |  |
| COc1cc(C2CCCNC2)c(OC)cc1SC.Cl (stereo not shown) [Compound 15dis, 3-(2,5-Dimethoxy-4-(methylthio)phenyl)piperidine Hydrochloride] | 38 ± 5% | 38% | 85% | 85 ± 7% |  |
| COc1cc(C2CCCNC2)c(OC)cc1SC.Cl (stereo not shown) [Compound 15eu, 3-(2,5-Dimethoxy-4-(methylthio)phenyl)piperidine Hydrochloride] | 16 ± 2% | 16% | 84% | 84 ± 6% |  |
| CCSc1cc(OC)c(C2CCCNC2)cc1OC.Cl (stereo not shown) [Compound 16dis, 3-(2,5-Dimethoxy-4-(ethylthio)phenyl)piperidine Hydrochloride] | 52 ± 5% | 52% |  |  |  |
| COc1cc(C2CCCNC2)c(OC)cc1SC(C)C (stereo not shown) [Compound 17dis, 3-(4-(Isopropylthio)-2,5-dimethoxyphenyl)piperidine] |  |  | 91% | 91 ± 4% |  |
| COc1cc(C2CCCNC2)c(OC)cc1SC(C)C (stereo not shown) [Compound 17eu, 3-(4-(Isopropylthio)-2,5-dimethoxyphenyl)piperidine] |  |  | 92% | 92 ± 4% |  |
| COc1cc(C(F)(F)F)ccc1C1CCCNC1.Cl (stereo not shown) [Compound 22, 3-(2-Methoxy-4-(trifluoromethyl)phenyl)piperidine Hydrochloride] |  |  |  |  | fold drop in agonist potency (fold higher EC50) at 5-HT2AR (human 5-HT2AR): 20 fold |
| COc1cc(C(F)(F)F)ccc1C1CCCNC1.Cl (stereo not shown) [Compound 22dis, 3-(2-Methoxy-4-(trifluoromethyl)phenyl)piperidine Hydrochloride] | 38 ± 6% |  |  |  | 5-HT2CR Rmax (%) (human 5-HT2CR; Table 2): 38% |
| CCOc1cc(C(F)(F)F)c(OC)cc1C1CCCNC1.Cl (stereo not shown) [Compound 24dis, 3-(2-Ethoxy-5-methoxy-4-(trifluoromethyl)phenyl)piperidine Hydrochloride] | 34 ± 1% |  |  |  |  |
| CCOc1cc(C(F)(F)F)c(OC)cc1C1CCCNC1.Cl (stereo not shown) [Compound 24eu, 3-(2-Ethoxy-5-methoxy-4-(trifluoromethyl)phenyl)piperidine Hydrochloride] |  |  |  |  | fold higher agonist potency at 5-HT2AR than at 5-HT2CR (selectivity) (human 5-HT2AR): 70 fold; fold drop in agonist potency (fold higher EC50) at 5-HT2AR (human 5-HT2AR): 10 fold |
| CCOc1cc(C2CCCNC2)c(OC)cc1C(F)(F)F.Cl (stereo not shown) [Compound 25eu, 3-(5-Ethoxy-2-methoxy-4-(trifluoromethyl)phenyl)piperidine Hydrochloride] | 44 ± 5% |  |  |  | 5-HT2CR Rmax (%) (human 5-HT2CR; Table 2): 44%; fold higher agonist potency at 5-HT2AR than at 5-HT2CR (selectivity) (human 5-HT2AR): 30 fold; fold drop in agonist potency (fold higher EC50) at 5-HT2AR (human 5-HT2AR): 3 fold |
